Results from patent US4469707A, “Method for treatment of senile dementia” (Astra Lakemedel Aktiebolag, priority 1983, dated 1984).

Test system: 5-HT uptake
Experiment: Prevention of H 75/12-induced brain 5-HT depletion (inhibition of 5-HT uptake in vivo, by brain region)
Set-up: species or system rats
Description: The regional specificity of the inhibition of the 5-HT was determined by studying whether GEA 654, alaproclate (2-(4-chloro-phenyl)-1,1-dimethylethyl-2-aminopropanoate), given i.p. to rats 30 min before H 75/12 (α-ethyl-4-methyl-m-tyramine) could prevent the brain 5-HT depletion induced by H 75/12, 50 mg/kg i.p., 2 h before sacrifice.

[1] = rats, 3 mg/kg i.p., 30 min before H 75/12 50 mg/kg i.p.
[2] = rats, 10 mg/kg i.p., 30 min before H 75/12 50 mg/kg i.p.
[3] = rats, 1,5 mg/kg i.p., 30 min before H 75/12 50 mg/kg i.p.

Compound: CC(N)C(=O)OC(C)(C)Cc1ccc(Cl)cc1 (stereo not drawn) [Alaproclate, 2-(4-chloro-phenyl)-1,1-dimethylethyl-2-aminopropanoate]
- Regional specificity in blocking the 5-HT uptake in vivo (in words, brain regions compared, 3 mg/kg dose level for alaproclate): most potent in the hippocampus followed by the hypothalamus
- % Inhibition of 5-HT uptake in Hippocampus [1]: 40%
- % Inhibition of 5-HT uptake in Hypothalamus [1]: 25%
- % Inhibition of 5-HT uptake in Spinal cord [1]: 17%
- % Inhibition of 5-HT uptake in Striatum [1]: 6%
- % Inhibition of 5-HT uptake in Cortex [2]: 13%
- % Inhibition of 5-HT uptake in Hippocampus [2]: 74%
- % Inhibition of 5-HT uptake in Hypothalamus [2]: 55%
- % Inhibition of 5-HT uptake in Spinal cord [2]: 33%
- % Inhibition of 5-HT uptake in Striatum [2]: 46%
- % Inhibition of 5-HT uptake in Hippocampus [3]: 10%
- % Inhibition of 5-HT uptake in Hypothalamus [3]: 10%
